Values of other authors as cited in article PMC5575935.

The chains behind the UniProt entries cited, without tags or fusion partners. Residues count along the entry.
UniProt Q07817, whole entry: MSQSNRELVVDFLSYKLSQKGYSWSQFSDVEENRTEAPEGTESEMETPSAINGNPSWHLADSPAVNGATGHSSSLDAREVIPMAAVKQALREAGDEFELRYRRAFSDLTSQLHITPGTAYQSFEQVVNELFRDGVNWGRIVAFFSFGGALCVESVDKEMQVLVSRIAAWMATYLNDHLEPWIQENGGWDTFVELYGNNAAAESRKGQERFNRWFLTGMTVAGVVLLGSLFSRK
UniProt Q16611, 2-211: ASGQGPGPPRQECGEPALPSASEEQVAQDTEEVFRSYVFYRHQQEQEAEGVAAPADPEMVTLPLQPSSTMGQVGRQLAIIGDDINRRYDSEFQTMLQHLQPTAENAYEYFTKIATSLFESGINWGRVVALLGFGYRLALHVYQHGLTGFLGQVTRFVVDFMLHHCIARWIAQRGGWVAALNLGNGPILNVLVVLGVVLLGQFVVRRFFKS

Target: Bcl-xL (Homo sapiens) (UniProt Q07817)

Kd: 480 nM
Substance: Bak peptide (from UniProt Q16611)
